Measurements reported in patent US8703804B2, “Ryanodine receptor inhibitors and methods relating thereto” (UTI Limited Partnership, priority 2006, dated 2014).

Chains of the proteins cited; added tags and fusions are not shown.
UniProt E9Q401, whole entry R4495C: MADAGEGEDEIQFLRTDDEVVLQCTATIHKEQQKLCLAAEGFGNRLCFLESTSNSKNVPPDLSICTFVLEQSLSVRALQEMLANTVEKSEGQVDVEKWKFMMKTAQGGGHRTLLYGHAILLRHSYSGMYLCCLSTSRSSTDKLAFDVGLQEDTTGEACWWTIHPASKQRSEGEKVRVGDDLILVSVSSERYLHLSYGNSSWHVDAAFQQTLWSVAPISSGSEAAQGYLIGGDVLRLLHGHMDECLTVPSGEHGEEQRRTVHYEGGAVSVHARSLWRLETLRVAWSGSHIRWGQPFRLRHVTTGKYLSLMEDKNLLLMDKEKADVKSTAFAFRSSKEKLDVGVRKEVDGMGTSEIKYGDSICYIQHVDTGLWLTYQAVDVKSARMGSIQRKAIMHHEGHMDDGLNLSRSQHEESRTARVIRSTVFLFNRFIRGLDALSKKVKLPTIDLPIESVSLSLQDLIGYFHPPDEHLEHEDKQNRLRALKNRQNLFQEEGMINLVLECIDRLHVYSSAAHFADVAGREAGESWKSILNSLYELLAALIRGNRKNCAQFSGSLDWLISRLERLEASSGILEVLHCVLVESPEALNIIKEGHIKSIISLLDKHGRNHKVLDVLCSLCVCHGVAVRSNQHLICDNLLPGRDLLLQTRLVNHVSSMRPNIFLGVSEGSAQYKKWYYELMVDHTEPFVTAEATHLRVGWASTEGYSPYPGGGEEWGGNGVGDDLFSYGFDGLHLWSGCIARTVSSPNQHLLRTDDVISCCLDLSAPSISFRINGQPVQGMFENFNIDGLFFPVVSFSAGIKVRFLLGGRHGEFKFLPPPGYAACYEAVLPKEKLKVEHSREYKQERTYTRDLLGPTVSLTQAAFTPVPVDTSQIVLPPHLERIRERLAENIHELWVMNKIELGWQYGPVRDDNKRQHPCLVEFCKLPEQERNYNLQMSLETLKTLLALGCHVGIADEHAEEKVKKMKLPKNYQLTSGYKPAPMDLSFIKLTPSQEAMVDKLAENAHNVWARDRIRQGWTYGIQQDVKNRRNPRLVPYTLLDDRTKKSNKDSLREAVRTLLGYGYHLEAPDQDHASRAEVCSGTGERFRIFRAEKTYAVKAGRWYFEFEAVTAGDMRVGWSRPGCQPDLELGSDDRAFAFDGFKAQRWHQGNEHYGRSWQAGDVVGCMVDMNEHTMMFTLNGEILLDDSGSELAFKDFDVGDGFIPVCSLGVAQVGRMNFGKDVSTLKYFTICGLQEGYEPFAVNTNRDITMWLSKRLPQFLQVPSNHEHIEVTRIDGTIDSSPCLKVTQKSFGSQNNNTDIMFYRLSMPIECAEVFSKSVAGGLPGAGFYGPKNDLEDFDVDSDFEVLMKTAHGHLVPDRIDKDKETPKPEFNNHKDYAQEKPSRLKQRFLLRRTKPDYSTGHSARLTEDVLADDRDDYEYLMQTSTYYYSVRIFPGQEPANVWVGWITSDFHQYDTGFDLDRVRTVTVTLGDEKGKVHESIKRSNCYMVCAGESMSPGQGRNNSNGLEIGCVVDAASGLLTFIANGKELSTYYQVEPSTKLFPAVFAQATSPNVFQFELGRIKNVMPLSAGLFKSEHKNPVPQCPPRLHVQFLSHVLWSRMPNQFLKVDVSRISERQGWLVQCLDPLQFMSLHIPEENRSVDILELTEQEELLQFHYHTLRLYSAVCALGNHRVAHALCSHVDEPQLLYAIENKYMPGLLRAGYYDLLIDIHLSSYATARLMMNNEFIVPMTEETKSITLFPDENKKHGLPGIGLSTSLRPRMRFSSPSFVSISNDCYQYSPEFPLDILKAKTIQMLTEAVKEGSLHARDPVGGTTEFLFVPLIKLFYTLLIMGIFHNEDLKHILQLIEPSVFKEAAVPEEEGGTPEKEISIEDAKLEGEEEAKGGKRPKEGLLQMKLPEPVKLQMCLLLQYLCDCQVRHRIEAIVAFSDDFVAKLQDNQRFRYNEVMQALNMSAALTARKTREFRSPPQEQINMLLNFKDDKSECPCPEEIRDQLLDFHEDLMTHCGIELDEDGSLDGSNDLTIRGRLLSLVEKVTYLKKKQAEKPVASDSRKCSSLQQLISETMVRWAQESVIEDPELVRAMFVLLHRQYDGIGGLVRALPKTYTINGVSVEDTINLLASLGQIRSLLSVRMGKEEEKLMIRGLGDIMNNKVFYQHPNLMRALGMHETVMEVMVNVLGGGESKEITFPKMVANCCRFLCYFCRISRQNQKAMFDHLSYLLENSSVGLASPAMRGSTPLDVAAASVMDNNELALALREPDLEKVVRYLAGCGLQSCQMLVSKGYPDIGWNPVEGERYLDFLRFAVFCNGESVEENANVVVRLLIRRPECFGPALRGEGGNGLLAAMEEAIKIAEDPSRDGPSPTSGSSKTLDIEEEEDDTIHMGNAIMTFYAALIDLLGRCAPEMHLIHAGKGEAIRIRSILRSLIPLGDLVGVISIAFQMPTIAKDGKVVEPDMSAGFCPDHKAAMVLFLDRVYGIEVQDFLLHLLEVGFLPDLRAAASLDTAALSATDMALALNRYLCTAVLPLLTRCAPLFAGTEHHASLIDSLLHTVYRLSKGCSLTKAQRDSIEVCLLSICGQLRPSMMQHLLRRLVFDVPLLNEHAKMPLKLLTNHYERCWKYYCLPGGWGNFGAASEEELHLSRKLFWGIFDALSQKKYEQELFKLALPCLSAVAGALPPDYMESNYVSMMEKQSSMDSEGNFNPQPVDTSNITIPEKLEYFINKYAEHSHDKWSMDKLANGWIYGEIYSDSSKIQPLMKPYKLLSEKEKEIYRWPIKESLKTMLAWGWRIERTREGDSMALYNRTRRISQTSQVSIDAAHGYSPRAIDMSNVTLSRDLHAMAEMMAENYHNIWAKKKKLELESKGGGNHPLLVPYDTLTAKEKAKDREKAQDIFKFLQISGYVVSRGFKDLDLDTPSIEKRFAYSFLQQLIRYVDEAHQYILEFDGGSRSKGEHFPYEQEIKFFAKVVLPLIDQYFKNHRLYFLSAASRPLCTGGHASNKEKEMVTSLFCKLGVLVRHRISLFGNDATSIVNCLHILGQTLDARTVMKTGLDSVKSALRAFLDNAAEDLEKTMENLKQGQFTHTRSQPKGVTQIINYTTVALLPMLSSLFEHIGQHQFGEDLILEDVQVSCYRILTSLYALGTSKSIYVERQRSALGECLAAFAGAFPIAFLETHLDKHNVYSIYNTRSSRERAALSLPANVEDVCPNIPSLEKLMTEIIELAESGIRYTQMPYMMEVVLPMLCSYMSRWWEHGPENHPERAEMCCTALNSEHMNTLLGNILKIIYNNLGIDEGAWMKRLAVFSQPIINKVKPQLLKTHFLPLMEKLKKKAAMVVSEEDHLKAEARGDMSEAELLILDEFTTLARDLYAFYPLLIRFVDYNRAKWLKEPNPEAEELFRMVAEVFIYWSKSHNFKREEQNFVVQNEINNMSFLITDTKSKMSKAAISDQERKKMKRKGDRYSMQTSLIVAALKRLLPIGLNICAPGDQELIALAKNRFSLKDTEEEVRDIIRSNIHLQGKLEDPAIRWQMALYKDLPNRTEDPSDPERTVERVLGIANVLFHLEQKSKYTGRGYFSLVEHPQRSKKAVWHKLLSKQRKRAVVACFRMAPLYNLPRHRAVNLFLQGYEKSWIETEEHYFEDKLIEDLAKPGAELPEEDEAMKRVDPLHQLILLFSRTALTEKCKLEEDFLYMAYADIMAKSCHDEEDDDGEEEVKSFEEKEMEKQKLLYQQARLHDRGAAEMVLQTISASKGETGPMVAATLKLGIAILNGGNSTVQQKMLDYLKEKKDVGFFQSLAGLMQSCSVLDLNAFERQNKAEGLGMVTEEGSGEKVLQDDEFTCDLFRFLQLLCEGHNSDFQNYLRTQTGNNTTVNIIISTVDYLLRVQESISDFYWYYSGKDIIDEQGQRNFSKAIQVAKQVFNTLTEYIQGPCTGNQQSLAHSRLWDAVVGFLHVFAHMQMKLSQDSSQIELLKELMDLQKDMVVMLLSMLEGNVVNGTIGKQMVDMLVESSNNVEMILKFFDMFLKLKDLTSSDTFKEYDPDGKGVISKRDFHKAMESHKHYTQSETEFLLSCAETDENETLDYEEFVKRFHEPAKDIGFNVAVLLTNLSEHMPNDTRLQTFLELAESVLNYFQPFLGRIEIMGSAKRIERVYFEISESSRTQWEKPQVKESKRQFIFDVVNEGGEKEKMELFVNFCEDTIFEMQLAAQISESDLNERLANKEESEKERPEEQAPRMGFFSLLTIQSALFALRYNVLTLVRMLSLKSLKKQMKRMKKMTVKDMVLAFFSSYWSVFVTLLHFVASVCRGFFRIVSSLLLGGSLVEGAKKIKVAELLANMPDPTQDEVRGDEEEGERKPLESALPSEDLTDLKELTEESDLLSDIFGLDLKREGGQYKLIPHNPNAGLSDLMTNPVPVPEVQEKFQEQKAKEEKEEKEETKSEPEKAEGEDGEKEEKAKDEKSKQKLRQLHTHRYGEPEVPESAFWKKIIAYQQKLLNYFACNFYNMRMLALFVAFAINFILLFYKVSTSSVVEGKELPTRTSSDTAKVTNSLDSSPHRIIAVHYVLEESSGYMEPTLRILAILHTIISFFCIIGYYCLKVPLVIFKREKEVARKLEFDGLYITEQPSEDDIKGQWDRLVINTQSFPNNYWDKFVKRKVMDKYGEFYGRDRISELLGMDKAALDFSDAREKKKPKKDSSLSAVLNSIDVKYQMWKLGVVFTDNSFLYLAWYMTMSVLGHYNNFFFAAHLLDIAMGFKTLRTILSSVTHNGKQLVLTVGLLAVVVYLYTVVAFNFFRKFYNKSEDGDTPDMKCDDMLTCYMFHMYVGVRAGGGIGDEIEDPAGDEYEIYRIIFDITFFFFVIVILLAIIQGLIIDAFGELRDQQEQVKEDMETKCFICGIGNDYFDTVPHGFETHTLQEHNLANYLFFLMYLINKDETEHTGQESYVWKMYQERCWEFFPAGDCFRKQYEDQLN

Tests used:
mutant RyR2 channels = target: T1, mutant RyR2 channels (Mus musculus, UniProt E9Q401, R4495C); assay: [3H]ryanodine binding, basal channel activity of RyR2; assay type: biochemical
T1 construct: expressed in transfected cells; host or cells: HEK293 (cell lysate, detergent-solubilised)
From the text: (§1) Intracellular Ca^2+ transients were monitored using single cell Ca^2+ imaging.
[^3H]Ryanodine binding has been widely used as a functional assay for assessing the activity of the RyR2 channel. […] These [^3H]ryanodine binding studies reveal whether suppression of SOICR by a compound is mediated by inhibition of the RyR2 channel activity.

RyR2 channel = target: T2, RyR2 channel (Mus musculus, UniProt E9Q401, R4495C); assay: Ca2+ dependence of [3H]ryanodine binding (sensitivity of RyR2 to Ca2+ activation, CICR); assay type: biochemical; conditions: 30 μM (FIG. 4D)
T2 construct: expressed in transfected cells; host or cells: HEK293 (cell lysate, detergent-solubilised)
From the text: as §1
Alternatively, the effect of compounds on CICR may be determined using [^3H]ryanodine binding. As CICR is dependent, to a large extent, on the sensitivity of the RyR2 channel to activation by Ca^2+, the effect of a compound on CICR may be determined by assessing the impact of the compound on the sensitivity of the RyR2 channel to Ca^2+ activation. To this end, [^3H]ryanodine binding to the RyR2 channel in a wide range of Ca^2+ concentrations may be measured. The sensitivity (EC50) of [^3H]ryanodine binding to RyR2 in the absence and presence of a particular compound may be determined.

RyR2-R4496C mutant = target: T3, RyR2-R4496C mutant (Mus musculus, UniProt E9Q401, R4495C); assay: SOICR in HEK293 cells expressing RyR2-R4496C mutant (fura-2 single cell Ca2+ imaging); assay type: cell-based
T3 construct: expressed in transfected cells; host or cells: HEK293
From the text: as §1
This bioassay takes advantage of the finding that HEK293 cells expressing RyR2 mutants associated with cardiac arrhythmia and sudden death, readily display SOICR at elevated extracellular Ca^2+. […] This assay may be employed to determine the dose-dependent effect of each proposed compound on SOICR.
(§2) HEK293 cells may be loaded with a fluorescent Ca^2+ dye, fura-2-AM. SOICR, which manifests in the form of Ca^2+ oscillations, is continuously monitored by measuring the fluorescent changes using the single cell Ca^2+ imaging technique. Cells will be perfused with increasing concentrations (10 nM to 100 μM) of the compound. The frequency and amplitude of Ca^2+ oscillations under each condition will be determined and analyzed. Compounds that inhibit SOICR are expected to reduce the frequency of Ca^2+ oscillations, or abolish Ca^2+ oscillations.

β-adrenergic receptors = assay: β-blocking activity of carvedilol reported in the literature (Yao et al., 2003); assay type: cell-based
Protocol: The β-blocking effect of the selected compounds may be tested in freshly isolated rat cardiac myocytes. Cardiac cells are isolated, loaded with fluo-4 AM, and bathed in a standard solution containing low Ca^2+ concentrations (1-2 mM). Cells are then stimulated by a train of short pulses (˜10 ms, 0.25 Hz), and the resulting intracellular Ca^2+ transients will be monitored using a fluorescence microscope. Cells will be pretreated with or without increasing concentrations of a selected compound, followed by the addition of isoproterenol (0.1-1 μM), an agonist of the β-adrenergic receptor known to augment intracellular Ca^2+ transients. The extent of inhibition on isoproterenol-induced augmentation of Ca^2+ transients under each condition will be measured and used to determine the IC50 of β-blocking activity for each selected compound. Using a procedure similar to that described above, the IC50 of β-blocking activity of carvedilol has been reported to be 1-2 nM (Yao et al., 2003). In certain embodiments, compounds of the present invention have little or moderate β-blocking activity.

RyR2-N4104K mutant = target: T4, RyR2-N4104K mutant (Mus musculus, UniProt E9Q401, N4103K); assay: SOICR in HEK293 cells expressing the N4104K RyR2 mutant; assay type: cell-based
T4 construct: expressed in transfected cells; host or cells: HEK293
Protocol: as §1, §2
Further verification of whether these identified compounds also work in cardiac cells, the effect of these compounds on SOICR in rat ventricular myocytes may also be determined. Rat ventricular myocytes may be isolated according to the standard procedure using enzymatic digestion. […] The intracellular Ca^2+ transients as a result of SOICR will be monitored by measuring the fluorescent intensity using a fluorescent microscope. Various concentrations of the selected compounds (10 nM to 100 μM) will be applied and the resulting changes in intracellular Ca^2+ transients will be determined and analyzed.

COc1ccccc1OCCNCC(O)COc1cccc2[nH]c3ccccc3c12 (stereo not drawn) [Carvedilol]
IC50 (mutant RyR2 channels): ~30 µM
effect on basal channel activity ([3H]ryanodine binding) (mutant RyR2 channels; cell lysates, 3 nM Ca2+, various concentrations of drugs (FIG. 4C)): inhibited basal channel activity
effect on channel activity of RyR2 (mutant RyR2 channels; summary statement): selectively inhibits the channel activity of RyR2
effect on Ca2+ dependence of [3H]ryanodine binding / sensitivity of RyR2 to Ca2+ activation (RyR2 channel): no significant effect
effect on SOICR (RyR2-R4496C mutant; HEK293 RyR2-R4496C, 0.5 mM [Ca2+]o, 10 μM): inhibited SOICR
concentration that abolishes SOICR (RyR2-R4496C mutant; HEK293 cells expressing RyR2 mutants, elevated extracellular Ca2+, preliminary results): ~10 µM
fold by which β-adrenergic IC50 is lower than concentration required to inhibit RyR2-mediated SOICR (β-adrenergic receptors): ~1,000 fold

COc1cc(Cl)c(Cl)cc1OCCNCC(O)COc1cccc2[nH]c3ccccc3c12 (stereo not drawn) [Compound 1b]
effect on SOICR (RyR2-N4104K mutant; HEK293 RyR2-N4104K, 2 mM [Ca2+]o, various concentrations): abolish SOICR
concentration at which SOICR is suppressed (RyR2-N4104K mutant; HEK293 cells (FIG. 5)): ~30 µM
